Source: US20210395313A1, “PEPTIDE PAC1 ANTAGONISTS” (AMGEN INC., priority 2017, published 2021)

What was measured:
[1] = biological target: T1, rat PAC1 receptor (Rattus norvegicus, UniProt P32215); assay: LANCE Ultra cAMP accumulation antagonist assay in RG-2 cells; format: cell-based;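 further: RG-2 rat glioma cells endogenously expressing PAC1, test peptide preincubated 30 min, then PAC1 agonist added at its EC80 for 15 min, cAMP accumulation read by LANCE Ultra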
T1 construct: SHSY-5Y (human neuroblastoma cell line) and RG-2 (rat glioma cell line) cells endogenously express human and rat PAC1 receptors, respectively; endogenous in cells; host or cells: RG-2 rat glioma cells
T1 sequence (P32215 20-523): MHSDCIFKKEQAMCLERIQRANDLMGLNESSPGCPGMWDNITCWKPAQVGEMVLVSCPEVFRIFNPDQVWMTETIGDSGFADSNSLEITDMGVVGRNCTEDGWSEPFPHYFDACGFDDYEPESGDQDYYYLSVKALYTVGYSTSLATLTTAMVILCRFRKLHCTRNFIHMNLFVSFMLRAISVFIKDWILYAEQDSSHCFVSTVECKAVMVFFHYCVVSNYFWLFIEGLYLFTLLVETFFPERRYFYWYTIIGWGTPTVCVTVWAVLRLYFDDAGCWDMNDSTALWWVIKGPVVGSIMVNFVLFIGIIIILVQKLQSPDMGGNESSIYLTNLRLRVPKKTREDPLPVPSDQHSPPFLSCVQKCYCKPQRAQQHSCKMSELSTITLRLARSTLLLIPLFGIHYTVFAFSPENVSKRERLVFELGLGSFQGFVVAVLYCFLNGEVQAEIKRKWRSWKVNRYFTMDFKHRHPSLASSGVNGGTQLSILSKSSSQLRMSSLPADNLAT

[2] = biological target: T2, human PAC1 receptor (Homo sapiens, UniProt P41586); assay: LANCE Ultra cAMP accumulation antagonist assay in SHSY-5Y cells; format: cell-based;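 further: inhibition of cAMP accumulation evoked by PAC1 agonist at its EC80 in SHSY-5Y cells endogenously expressing receptor, 30 min preincubation then 15 min agonist, TR-FRET readout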
T2 construct: SHSY-5Y (human neuroblastoma cell line) and RG-2 (rat glioma cell line) cells endogenously express human and rat PAC1 receptors, respectively; endogenous in cells; host or cells: SHSY-5Y human neuroblastoma cells
T2 sequence (P41586 21-468): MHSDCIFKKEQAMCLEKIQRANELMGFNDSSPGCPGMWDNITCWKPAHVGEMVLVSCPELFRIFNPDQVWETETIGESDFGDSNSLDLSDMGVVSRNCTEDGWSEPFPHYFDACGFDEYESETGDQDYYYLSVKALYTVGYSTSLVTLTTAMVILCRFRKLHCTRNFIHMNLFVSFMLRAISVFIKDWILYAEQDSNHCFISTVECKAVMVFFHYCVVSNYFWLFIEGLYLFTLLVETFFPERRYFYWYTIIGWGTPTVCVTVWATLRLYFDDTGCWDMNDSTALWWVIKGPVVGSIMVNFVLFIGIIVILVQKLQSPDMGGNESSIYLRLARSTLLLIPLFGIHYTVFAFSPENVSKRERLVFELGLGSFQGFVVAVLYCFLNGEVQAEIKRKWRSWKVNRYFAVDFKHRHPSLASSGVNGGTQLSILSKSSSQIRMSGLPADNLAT

| Structure (SMILES) | IC50 [1] [nM] | IC50 [2] [nM] |
| --- | --- | --- |
| CC[C@H](C)[C@H](NC(=O)[C@H](C)NC(=O)[C@H](CCCCN)NC(=O)[C@H](CCCNC(=N)N)NC(=O)[C@H](Cc1ccccc1)NC(=O)[C@H](CCC(N)=O)NC(=O)[C@@H]1CSSC[C@H](N)C(=O)N[C@@H](CC(=O)O)C(=O)N[C@@H](C)C(=O)N[C@@H]([C@@H](C)O)C(=O)N1)C(=O)N[C@@H](CC(=O)O)C(=O)N[C@@H](CC(=O)O)C(=O)N[C@H]1CSSC[C@@H](C(=O)N[C@@H](CCSC)C(=O)N[C@@H](CCCCN)C(=O)N[C@@H](CCC(N)=O)C(=O)N[C@@H](CCCCN)C(=O)N[C@@H](CCCCN)C(=O)N[C@@H](CCCCN)C(=O)N[C@@H](CCC(=O)O)C(=O)N[C@@H](Cc2c[nH]c3ccccc23)C(=O)N[C@@H](CCCCN)C(=O)N[C@@H](C)C(=O)N[C@@H](CC(N)=O)C(=O)O)NC(=O)C(C)(C)NC(=O)[C@H](CCCCN)NC(=O)[C@H](Cc2ccccc2)NC(=O)[C@H](C(C)C)NC(=O)[C@H](CO)NC(=O)CNC(=O)[C@@H]2CCCN2C(=O)[C@H](C(C)C)NC(=O)[C@H](CC(N)=O)NC(=O)[C@H](CO)NC(=O)[C@H](Cc2c[nH]cn2)NC(=O)[C@H](Cc2c[nH]cn2)NC(=O)[C@H](C)NC(=O)[C@H](CCC(N)=O)NC(=O)[C@H](CCCCN)NC(=O)[C@H](CCC(N)=O)NC1=O [compound 162] | 0.01 to 1 | 1 to 100 |
| CC[C@H](C)[C@H](NC(=O)[C@H](C)NC(=O)[C@H](CCCCN)NC(=O)[C@H](CCCNC(=N)N)NC(=O)[C@H](Cc1ccccc1)NC(=O)[C@H](CCC(N)=O)NC(=O)[C@H](CO)NC(=O)[C@@H](NC(=O)[C@@H]1CCCN1C(=O)[C@H](CC(=O)O)NC(=O)[C@@H](N)CO)[C@@H](C)O)C(=O)N[C@@H](CC(=O)O)C(=O)N[C@@H](CC(=O)O)C(=O)N[C@H]1CSSC[C@@H](C(=O)N[C@@H](CCSC)C(=O)N[C@@H](CCCCN)C(=O)N[C@@H](CCC(N)=O)C(=O)N[C@@H](CCCCN)C(=O)N[C@@H](CCCCN)C(=O)N[C@@H](CCCCN)C(=O)N[C@@H](CCC(=O)O)C(=O)N[C@@H](Cc2ccccc2)C(=O)N[C@@H](CCCCN)C(=O)N[C@@H](C)C(=O)NCC(N)=O)NC(=O)C(C)(C)NC(=O)[C@H](CCCCN)NC(=O)[C@H](Cc2ccccc2)NC(=O)[C@H](C(C)C)NC(=O)[C@H](CO)NC(=O)CNC(=O)[C@@H]2CCCN2C(=O)[C@H](C(C)C)NC(=O)[C@H](CC(N)=O)NC(=O)[C@H](CO)NC(=O)[C@H](Cc2c[nH]cn2)NC(=O)[C@H](Cc2c[nH]cn2)NC(=O)[C@H](C)NC(=O)[C@H](CCC(N)=O)NC(=O)[C@H](CCCCN)NC(=O)[C@H](CCC(N)=O)NC1=O [compound 213] | 0.01 to 1 | 1 to 100 |
| CC[C@H](C)[C@H](NC(=O)[C@H](C)NC(=O)[C@H](CCCCN)NC(=O)[C@H](CCCNC(=N)N)NC(=O)[C@H](Cc1ccccc1)NC(=O)[C@H](CCC(N)=O)NC(=O)[C@@H]1CSSC[C@H](N)C(=O)N[C@@H](CC(=O)O)C(=O)N[C@@H](C)C(=O)N[C@@H]([C@@H](C)O)C(=O)N1)C(=O)N[C@@H](CC(=O)O)C(=O)N[C@@H](CCC(=O)O)C(=O)N[C@H]1CSSC[C@@H](C(=O)N[C@@H](CCSC)C(=O)N[C@@H](CCCCN)C(=O)N[C@@H](CCC(N)=O)C(=O)N[C@@H](CCCCN)C(=O)N[C@@H](CCCCN)C(=O)N[C@@H](CCCCN)C(=O)N[C@@H](CCC(=O)O)C(=O)N[C@@H](Cc2ccccc2)C(=O)N[C@@H](CCCCN)C(=O)N[C@@H](C)C(=O)NCC(N)=O)NC(=O)C(C)(C)NC(=O)[C@H](CCCCN)NC(=O)[C@H](Cc2ccccc2)NC(=O)[C@H](C(C)C)NC(=O)[C@H](CO)NC(=O)CNC(=O)[C@@H]2CCCN2C(=O)[C@H](C(C)C)NC(=O)[C@H](CC(N)=O)NC(=O)[C@H](CO)NC(=O)[C@H](Cc2c[nH]cn2)NC(=O)[C@H](Cc2c[nH]cn2)NC(=O)[C@H](C)NC(=O)[C@H](CCC(N)=O)NC(=O)[C@H](CCCCN)NC(=O)[C@H](CCC(N)=O)NC1=O [compound 215] | 0.01 to 1 | 1 to 100 |
| CC[C@H](C)[C@H](NC(=O)[C@H](C)NC(=O)[C@H](CCCCN)NC(=O)[C@H](CCCNC(=N)N)NC(=O)[C@H](Cc1ccccc1)NC(=O)[C@H](CCC(N)=O)NC(=O)[C@@H]1CSSC[C@H](N)C(=O)N[C@@H](CC(=O)O)C(=O)N[C@@H](C)C(=O)N[C@@H]([C@@H](C)O)C(=O)N1)C(=O)N[C@@H](CC(=O)O)C(=O)N[C@@H](CC(=O)O)C(=O)N[C@H]1CSSC[C@@H](C(=O)N[C@@H](CCSC)C(=O)N[C@@H](CCCCN)C(=O)N[C@@H](CCC(N)=O)C(=O)N[C@@H](CCCCN)C(=O)N[C@@H](CCCCN)C(=O)N[C@@H](CCCCN)C(=O)N[C@@H](CCC(=O)O)C(=O)N[C@@H](Cc2ccccc2)C(=O)N[C@@H](CCCCN)C(=O)N[C@@H](C)C(=O)NCC(N)=O)NC(=O)C(C)(C)NC(=O)[C@H](CCCCN)NC(=O)[C@H](Cc2ccccc2)NC(=O)[C@H](CO)NC(=O)CNC(=O)[C@@H]2CCCN2C(=O)[C@H](C(C)C)NC(=O)[C@H](CC(N)=O)NC(=O)[C@H](CO)NC(=O)[C@H](Cc2c[nH]cn2)NC(=O)[C@H](Cc2c[nH]cn2)NC(=O)[C@H](C)NC(=O)[C@H](CCC(N)=O)NC(=O)[C@H](CCCCN)NC(=O)[C@H](CCC(N)=O)NC1=O [compound 216] | 0.01 to 1 | 1 to 100 |
| CCCC[C@H](NC(=O)[C@@H]1CSSC[C@H](NC(=O)[C@H](CC(=O)O)NC(=O)[C@H](CC(=O)O)NC(=O)[C@@H](NC(=O)[C@H](C)NC(=O)[C@H](CCCCN)NC(=O)[C@H](CCCNC(=N)N)NC(=O)[C@H](Cc2ccccc2)NC(=O)[C@H](CCC(N)=O)NC(=O)[C@@H]2CSSC[C@H](N)C(=O)N[C@@H](CC(=O)O)C(=O)N[C@@H](C)C(=O)N[C@@H]([C@@H](C)O)C(=O)N2)[C@@H](C)CC)C(=O)N[C@@H](CCC(N)=O)C(=O)N[C@@H](CCCCN)C(=O)N[C@@H](CCC(N)=O)C(=O)N[C@@H](C)C(=O)N[C@@H](Cc2c[nH]cn2)C(=O)N[C@@H](Cc2c[nH]cn2)C(=O)N[C@@H](CO)C(=O)N[C@@H](CO)C(=O)N[C@@H](Cc2ccccc2)C(=O)N[C@@H](CCCCN)C(=O)NC(C)(C)C(=O)N1)C(=O)N[C@@H](CCCCN)C(=O)N[C@@H](CCC(N)=O)C(=O)N[C@@H](CCCCN)C(=O)N[C@@H](CCCCN)C(=O)N[C@@H](CCCCN)C(=O)N[C@@H](CCC(=O)O)C(=O)N[C@@H](Cc1ccccc1)C(=O)N[C@@H](CCCCN)C(N)=O [compound 217] | 1 to 100 | 1 to 100 |
| CCCC[C@H](NC(=O)[C@@H]1CSSC[C@H](NC(=O)[C@H](CC(=O)O)NC(=O)[C@H](CC(=O)O)NC(=O)[C@@H](NC(=O)[C@H](C)NC(=O)[C@H](CCCCN)NC(=O)[C@H](CCCNC(=N)N)NC(=O)[C@H](Cc2ccccc2)NC(=O)[C@H](CCC(N)=O)NC(=O)[C@@H]2CSSC[C@H](N)C(=O)N[C@@H](CC(=O)O)C(=O)N[C@@H](C)C(=O)N[C@@H]([C@@H](C)O)C(=O)N2)[C@@H](C)CC)C(=O)N[C@@H](CC(=O)O)C(=O)N[C@@H](CCCCN)C(=O)N[C@@H](CCC(N)=O)C(=O)N[C@@H](C)C(=O)N[C@@H](Cc2c[nH]cn2)C(=O)N[C@@H](Cc2c[nH]cn2)C(=O)N[C@@H](CO)C(=O)N[C@@H](CO)C(=O)N[C@@H](C(C)C)C(=O)N[C@@H](Cc2ccccc2)C(=O)N[C@@H](CCCCN)C(=O)NC(C)(C)C(=O)N1)C(=O)N[C@@H](CCCCN)C(=O)N[C@@H](CCC(N)=O)C(=O)N[C@@H](CCCCN)C(=O)N[C@@H](CCCCN)C(=O)N[C@@H](CCCCN)C(=O)N[C@@H](CCC(=O)O)C(=O)N[C@@H](Cc1ccccc1)C(=O)N[C@@H](CCCCN)C(N)=O [compound 218] | 1 to 100 | 1 to 100 |
| CCCC[C@H](NC(=O)[C@@H]1CSSC[C@H](NC(=O)[C@H](CC(=O)O)NC(=O)[C@H](CC(=O)O)NC(=O)[C@@H](NC(=O)[C@H](C)NC(=O)[C@H](CCCCN)NC(=O)[C@H](CCCNC(=N)N)NC(=O)[C@H](Cc2ccccc2)NC(=O)[C@H](CCC(N)=O)NC(=O)[C@@H]2CSSC[C@H](N)C(=O)N[C@@H](CC(=O)O)C(=O)N[C@@H](C)C(=O)N[C@@H]([C@@H](C)O)C(=O)N2)[C@@H](C)CC)C(=O)N[C@@H](CC(=O)O)C(=O)N[C@@H](CCCCN)C(=O)N[C@@H](CCC(N)=O)C(=O)N[C@@H](C)C(=O)N[C@@H](Cc2c[nH]cn2)C(=O)N[C@@H](Cc2c[nH]cn2)C(=O)N[C@@H](CO)C(=O)N[C@@H](CO)C(=O)N[C@@H](Cc2ccccc2)C(=O)N[C@@H](CCCCN)C(=O)N[C@@H](CCC(=O)O)C(=O)N1)C(=O)N[C@@H](CCCCN)C(=O)N[C@@H](CCC(N)=O)C(=O)N[C@@H](CCCCN)C(=O)N[C@@H](CCCCN)C(=O)N[C@@H](CCCCN)C(=O)N[C@@H](CCC(=O)O)C(=O)N[C@@H](Cc1ccccc1)C(=O)N[C@@H](CCCCN)C(N)=O [compound 219] | 1 to 100 | 1 to 100 |
